Measurements published in patent US10435447B2, “Bacteriocidal peptides and uses thereof” (priority 2015, dated 2019).

Columns and labels:
[1] = tested on: E. cloacae; conditions: E. cloacae OC 4080; with SMAP-29C* vs alone
[2] = tested on: E. coli; conditions: with SMAP-29C* vs alone
[3] = tested on: P. aeruginosa; conditions: P. aeruginosa PA01 oprD; with SMAP-29C* vs alone

SMILES: NC[C@H]1O[C@H](O[C@H]2[C@H](O)[C@@H](O[C@H]3O[C@H](CO)[C@@H](O)[C@H](N)[C@H]3O)[C@H](N)C[C@@H]2N)[C@H](O)[C@@H](O)[C@@H]1O [Kan, kanamycin]
- Kan MIC Fold change (↓ decrease) [1]: ↓>8x fold
- Kan MIC Fold change (↓ decrease) ([2]; E. coli ATCC25922): ↓>8x fold
- Kan MIC Fold change (↓ decrease) ([2]; E. coli IU-342): ↓2x fold
- Kan MIC Fold change (↓ decrease) [3]: ↓2x fold

Where two headings read alike, the source gives them in different places.
